Earlier results, collected in patent publication US20080009517A1, “Use of nelfinavir as a radiation sensitizer” (The Trustees of the University of Pennsylvania, priority 2005, published 2008).

System: metastatic breast cancer
Conditions: first line of treatment in metastatic breast cancer; cited from earlier work

In the case of “Trastuzumab: Trastuzumab (HERCEPTIN), first line of treatment in metastatic breast cancer”, the response rate is given as 25%.
